Biological target: purified recombinant p110β/Δp85 (mouse) (UniProt Q8BTI9)
Test: ITC

## RAC1·GTPγS (soluble, untagged) (from UniProt P63001 1-192) (natural protein)
  stoichiometry N: 1

Source: publication PMC3690480
